The entries are a selection whose mix differs from that of the whole data set. Inconclusive results are not listed. The source made the active and inactive calls. Unless noted, calls follow the shape of the dose curve; as a rule, active = well fitted curve in the direction sought with a large enough effect; inconclusive = small, poorly fitted or top-dose-only effect, or another doubt; inactive = no such curve, though single readings can be large; an effect the other way counts as inactive or inconclusive.
The compounds below were run against Cytochrome P450 2C9 (Homo sapiens) (UniProt P11712) (assay: qHTS Assay for Inhibitors and Substrates of Cytochrome P450 2C9 (AID 883; also: nearly all actives have a fitted effect of over 60% in size)). Settings: recombinant CYP2C9, luciferin-H luminescence, 60 min.
Potency is read from the fitted curve at half-maximal effect.

Sequences of proteins named here, by UniProt entry; tags and fusion partners are left off.
UniProt P11712, whole entry, looked up: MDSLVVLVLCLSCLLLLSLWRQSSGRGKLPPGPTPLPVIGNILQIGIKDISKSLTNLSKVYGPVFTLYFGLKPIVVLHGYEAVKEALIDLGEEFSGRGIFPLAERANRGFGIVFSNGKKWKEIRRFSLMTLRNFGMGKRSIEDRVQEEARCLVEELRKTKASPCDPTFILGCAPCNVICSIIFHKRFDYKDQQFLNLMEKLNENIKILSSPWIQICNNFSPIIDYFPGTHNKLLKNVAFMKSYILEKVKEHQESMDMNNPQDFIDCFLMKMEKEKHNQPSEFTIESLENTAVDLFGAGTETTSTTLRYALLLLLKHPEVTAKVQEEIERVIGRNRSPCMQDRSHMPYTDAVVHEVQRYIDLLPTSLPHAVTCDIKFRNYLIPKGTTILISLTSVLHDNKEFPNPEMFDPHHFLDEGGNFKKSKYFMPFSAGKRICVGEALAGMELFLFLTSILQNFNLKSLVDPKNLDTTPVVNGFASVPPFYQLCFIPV
UniProt P21728, whole entry, looked up: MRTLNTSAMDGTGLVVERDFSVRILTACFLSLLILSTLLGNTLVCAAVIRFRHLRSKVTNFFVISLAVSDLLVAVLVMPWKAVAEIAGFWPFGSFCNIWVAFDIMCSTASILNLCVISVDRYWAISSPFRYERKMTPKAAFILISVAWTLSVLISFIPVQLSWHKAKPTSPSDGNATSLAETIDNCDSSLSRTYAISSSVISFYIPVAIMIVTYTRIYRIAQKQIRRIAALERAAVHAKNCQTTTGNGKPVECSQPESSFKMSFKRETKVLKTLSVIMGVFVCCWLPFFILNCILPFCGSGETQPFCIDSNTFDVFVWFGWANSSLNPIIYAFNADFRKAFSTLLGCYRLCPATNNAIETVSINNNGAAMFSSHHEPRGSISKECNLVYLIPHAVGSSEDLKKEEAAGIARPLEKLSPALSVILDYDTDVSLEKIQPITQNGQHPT
UniProt P10635, whole entry, looked up: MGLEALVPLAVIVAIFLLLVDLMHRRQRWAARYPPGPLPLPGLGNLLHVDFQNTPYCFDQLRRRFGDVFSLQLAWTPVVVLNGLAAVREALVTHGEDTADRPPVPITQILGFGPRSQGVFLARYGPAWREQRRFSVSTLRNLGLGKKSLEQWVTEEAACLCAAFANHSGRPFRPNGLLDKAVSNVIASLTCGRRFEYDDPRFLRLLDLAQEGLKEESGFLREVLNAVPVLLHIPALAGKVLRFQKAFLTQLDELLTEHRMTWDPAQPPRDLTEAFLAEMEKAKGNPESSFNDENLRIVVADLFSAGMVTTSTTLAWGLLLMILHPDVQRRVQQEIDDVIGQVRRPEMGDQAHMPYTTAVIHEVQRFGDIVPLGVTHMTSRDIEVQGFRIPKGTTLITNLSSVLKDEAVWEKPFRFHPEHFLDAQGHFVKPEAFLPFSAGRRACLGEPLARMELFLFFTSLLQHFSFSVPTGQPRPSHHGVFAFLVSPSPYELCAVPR

Q: With C#C[C@@]1(O)CC[C@H]2[C@H]3CCC4=Cc5oncc5C[C@]4(C)[C@@H]3CC[C@@]21C as the compound, how does the Potency read?
A: active: 2 µM

Q: How did the Potency turn out when O=c1c(O)c(-c2ccc(O)c(O)c2)oc2cc(O)cc(O)c12 was run?
A: active: 7.94 µM

Q: C#C[C@]1(O)CC[C@@H]2[C@H]3CCC4=Cc5oncc5C[C@]4(C)[C@@H]3CC[C@@]21C was tested. Which Potency did it give?
A: active: 1.26 µM

These compounds were tested against D(1A) dopamine receptor (Homo sapiens) (UniProt P21728) (assay: HTS Assay for Allosteric Agonists of the Human D1 Dopamine Receptor: Primary Screen for Antagonists (AID 488983;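 also: calcium flux response to an EC80 dopamine challenge measured with no-wash dye; nearly all actives have a fitted effect of over 65% in size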)). Settings: D1 receptor cell assay, antagonist mode, qHTS titration.
Summary of the method: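 Tetracycline-induced HEK293 T-REx D1 line, force-coupled to calcium flux, read with no-wash calcium dye. Compound added after 10 s baseline, read 180 s for agonism, then EC80 dopamine added and read a further 180 s.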

Q: How did the Potency turn out when OCCN1CCN(CC/C=C2/c3ccccc3Sc3ccc(C(F)(F)F)cc32)CC1 was run?
A: active: 0.112 µM

Q: For CNC[C@H](O)c1ccc(O)c(O)c1, which Potency is on record?
A: active: 2.51 µM

Q: For CNCC(O)c1ccc(O)c(O)c1 (centres undefined), which Potency is on record?
A: active: 3.98 µM

What follows are compounds tested against Cytochrome P450 2D6 (Homo sapiens) (UniProt P10635) (assay: Cytochrome P450 family 2 subfamily D member 6 (CYP2D6) small molecule antagonists: luciferase biochemical (cell-free) qHTS assay (AID 1645840; active = well fitted curve in the direction sought with a large enough effect in the repeat runs; an effect the other way counts as inactive or inconclusive; also: nearly all actives have a fitted effect of over 55% in size)). Settings: P450-Glo CYP2D6 enzyme, luciferin luminescence, 1 h.
Summary of the method: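 P450-Glo luminescent screen: recombinant CYP2D6 enzyme–proluciferin substrate mix preincubated with compound 10 min at room temperature, then NADPH regeneration added for 1 h at room temperature. Detection reagent added for 20 min; luciferin light read as relative luminescence units.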

Q: How did the Potency turn out when CN(C)c1ccc2nc3ccc(=[N+](C)C)cc-3sc2c1 was run?
A: active: 0.389 µM

Q: With COc1cc(NC(C)CCCN)c2ncccc2c1 (centres undefined) as the compound, how does the Potency read?
A: active: 5.49 µM

Q: For COc1cc(N)c(Cl)cc1C(=O)NC1CCN(CCCOc2ccc(F)cc2)CC1OC (centres undefined), which Potency is on record?
A: active: 0.0776 µM
